Data published in US7709613B2, “Rhenium-188 and rhenium-186 for treatment of tumors expressing a Na+/I− symporter” (priority 2002, dated 2010).

Test system: NIS-expressing xenografted mammary adenocarcinoma (NAFA cells)
Format: in vivo, nude mice
Conditions: 24 hr; liver
Protocol: Animal model. […] Since erbB-2 (Neu) is one of the better known human breast cancer oncogenes, a mammary tumor cell line (NAFA) induced by oncogenic Neu was used. The NAFA cell line derived from the MMTV-NeuT mouse was grown in DMEM with 10% fetal bovine serum and 1% penicillin-streptomycin. […] Female nude mice (Charles River Laboratories) 4-6 weeks old were injected SC with 10^6 NAFA cells into the left groin.
Biodistribution. […] In order to block mg-NIS in expressing organs and tumor, control animals were injected with the above mixture of isotopes combined with 2 mg NaClO4. […] The % ID/g for each organ was determined, and RIs (% ID/g in the tumor divided by the % ID/g in normal tissue) were calculated.

[I-].[Na+] [^125I^−, sodium iodide]
Tumor to normal organ ratio (RI): 6.25
